Values quoted from earlier work, collected in patent US11173150B2, “Method for diagnosing, preventing, and treating neurological diseases” (United States Government As Represented By The Department …, priority 2010, dated 2021).

Columns and labels:
[1] = cited from earlier work
clostridia = conditions: Haralambie et al. 1983; cited from earlier work

## Trimethoprim/sulfamethoxazole [TMX/Sul]
[1]
  Absorption when given by the oral route: absorbed well
clostridia
  Effect on clostridia in the bowel flora of adults: major overgrowth of clostridia

## gentamicin
[1]
  Absorption when given by the oral route: virtually unabsorbed
